The target of one assay is T1, huCDCP1-his (human, UniProt Q9H5V8 30-667, limits assumed).
T1 construct: also called human CDCP1 antigen; not shown: his tag
T1 sequence (looked up): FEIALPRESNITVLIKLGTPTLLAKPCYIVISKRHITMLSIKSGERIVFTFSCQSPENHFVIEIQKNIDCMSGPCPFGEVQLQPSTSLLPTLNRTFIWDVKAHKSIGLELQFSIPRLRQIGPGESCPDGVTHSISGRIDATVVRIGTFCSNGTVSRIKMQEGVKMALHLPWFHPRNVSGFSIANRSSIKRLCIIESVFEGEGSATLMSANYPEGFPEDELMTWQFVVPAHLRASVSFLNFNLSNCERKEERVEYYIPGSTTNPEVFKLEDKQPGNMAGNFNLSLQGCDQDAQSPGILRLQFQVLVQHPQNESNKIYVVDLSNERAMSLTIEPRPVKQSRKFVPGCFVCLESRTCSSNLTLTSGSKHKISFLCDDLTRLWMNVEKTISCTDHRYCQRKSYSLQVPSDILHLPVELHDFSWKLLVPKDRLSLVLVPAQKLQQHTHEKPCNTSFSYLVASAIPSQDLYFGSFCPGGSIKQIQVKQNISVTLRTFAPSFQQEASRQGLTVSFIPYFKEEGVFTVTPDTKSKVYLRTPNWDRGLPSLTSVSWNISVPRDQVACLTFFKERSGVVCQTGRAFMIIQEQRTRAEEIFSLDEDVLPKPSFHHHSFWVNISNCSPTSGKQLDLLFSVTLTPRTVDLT
The experiment in a line: SPR (Caterra), antigen immobilized. As for the experimental part:
(§1) The candidate antibodies obtained from Example 6 were subjected to gene cloning, constructed into an expression vector for a small amount of expression in CHO cells, and purified with an Fc affinity column (AT Protein A Diamond Plus. No. AA402312). Antibody purity was analyzed by HPLC and determined by Nanodrop. High-throughput affinity assay was carried out for a small amount of antibodies by Caterra. Specifically, human CDCP1 antigen (2 μg/ml) was immobilized to assay antibody binding, and antibodies to be tested (antibodies diluted to the highest concentration of 150 nM, with a 3-fold dilution across 5 concentration points, which were respectively 1.85, 5.55, 16.67, 50, 150 nM) were allowed to flow through the detection chip respectively by Caterra, and data analysis was performed with Kinetics software. At the same time, 2 μg/ml antigen human CDCP1-C and 2 μg/ml human CDCP1-B were used for coating, and the antigen-antibody binding capacity was tested by ELISA for verification.

The target of the next assay is T2, HuCDCP1-B (human, UniProt Q9H5V8 343-667).
T2 construct: range 343-667; expressed in HEK-293T, purified by Fc/his tag; also called human CDCP1-B; membrane-proximal region of CDCP1; not shown: Fc or his tag
T2 sequence (looked up): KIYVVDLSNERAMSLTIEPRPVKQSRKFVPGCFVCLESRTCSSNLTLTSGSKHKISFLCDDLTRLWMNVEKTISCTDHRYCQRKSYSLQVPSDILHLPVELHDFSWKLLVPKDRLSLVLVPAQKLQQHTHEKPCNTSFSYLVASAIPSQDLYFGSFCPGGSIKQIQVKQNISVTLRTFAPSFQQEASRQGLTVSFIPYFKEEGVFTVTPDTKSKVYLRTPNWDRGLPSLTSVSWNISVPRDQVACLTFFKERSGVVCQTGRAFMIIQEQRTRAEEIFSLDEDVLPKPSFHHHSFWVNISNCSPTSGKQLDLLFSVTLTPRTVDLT
Nature of the assay: ELISA, coated antigen. The procedure:
as §1
A general note: In an ELISA, binding on a coated surface is turned into a signal by an enzyme label.

Assay [1] addresses T3, HuCDCP1-C (human, UniProt Q9H5V8 30-667).
T3 construct: range 30-667; expressed in HEK-293T, purified by Fc/his tag; also called human CDCP1-C; full-length extracellular domain of human CDCP1; not shown: Fc or his tag
T3 sequence (looked up): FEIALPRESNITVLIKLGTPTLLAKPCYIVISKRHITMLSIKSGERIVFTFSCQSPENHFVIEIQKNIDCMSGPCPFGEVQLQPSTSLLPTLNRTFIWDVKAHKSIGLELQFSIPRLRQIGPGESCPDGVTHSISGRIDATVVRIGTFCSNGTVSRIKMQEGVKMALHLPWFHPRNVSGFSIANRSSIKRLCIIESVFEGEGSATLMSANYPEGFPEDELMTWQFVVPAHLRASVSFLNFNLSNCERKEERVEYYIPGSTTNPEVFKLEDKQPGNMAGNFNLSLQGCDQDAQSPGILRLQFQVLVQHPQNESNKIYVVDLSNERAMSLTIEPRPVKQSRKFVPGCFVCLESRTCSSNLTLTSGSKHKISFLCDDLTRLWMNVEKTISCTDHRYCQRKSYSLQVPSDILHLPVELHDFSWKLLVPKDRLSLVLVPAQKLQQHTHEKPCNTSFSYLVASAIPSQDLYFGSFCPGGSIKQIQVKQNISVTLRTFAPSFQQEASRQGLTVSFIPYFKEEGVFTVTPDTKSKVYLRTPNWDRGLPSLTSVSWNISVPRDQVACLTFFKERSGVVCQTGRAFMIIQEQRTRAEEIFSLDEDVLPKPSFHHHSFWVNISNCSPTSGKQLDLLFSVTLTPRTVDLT
Nature of the assay: ELISA, coated antigen. As for the experimental part:
as §1

Assay [2] deals with T3, HuCDCP1-C. Nature of the assay: SPR (Caterra), antigen immobilized. As for the experimental part:
as §1, with “The humanized anti-CDCP1” for “The candidate”, “Example 11” for “Example 6”, “into pTT5” for “into an”, “CHO cells (Expi-CHOS: Gibco A29127),” for “CHO cells,”, “Specifically, HuCDCP1-C” for “Specifically, human CDCP1”, “software.” for “software. At the same time, 2 μg/ml antigen human CDCP1-C and 2 μg/ml human CDCP1-B were used for coating, and the antigen-antibody binding capacity was tested by ELISA for verification.”

B1: SB14 (antibody, V domains shown)
VH: QVQLQQSGNEVVKPGASVKLSCKTSGYTFTNYWLQWVKQRPGQGLEWIGEIFPGTGTTYYNEKFKDQATVTIDTSSSTAYIHLSSLTSEDSAVYFCARTNWEGYYFDYWGQGTTLTVSS
VL: ENVLTQSPAIMSASSGEKVTMTCRASSSVRSSYLHWYQQKSGASPKVWIYSTSNLASGVPVRFSGSGSGTSYSLTISSVEAEDAATYYCQQYSGSPSWTFGGGTKLEIK
notes: single B cell antibody, expressed in CHO
By Kd is commonly meant the concentration at which binding is half-saturated. Broadly, the EC50 is the midpoint of the concentration-response curve. High values mean lower potency in that assay, low ones higher potency in that assay. Molecule B1 displayed a Kd in the assay with huCDCP1-his of 0.497 nM. Also, the EC50 is 0.056 nM in the assay with HuCDCP1-B and 0.067 nM with HuCDCP1-C [1].

B2: SB18 (antibody, V domains shown)
VH: QVTLKESGPGILQPSQTLSLTCSFSGFSLTTSGMNVGWLRQPSGKGLEWLAHIWWNDDKHSNPVLKSRLTISKDTSNNQAFLKIANVVTADSATYYCARLRDGGFAYWGQGTLVTVSA
VL: DIQMTQTTSSLSASLGDRVTISCSASQAISNYLNWYQQKPDGTVKLLIYYTSHLHSGVPSRFSGSGSGTDYSLTISNLEPEDIATYYCQQYSKIPWTFGGGTKLEII
notes: as for B1
Consider B2, for which, in the assay with huCDCP1-his, the equilibrium dissociation constant (Kd) came to 6.99 nM. The molecule further had an EC50 with HuCDCP1-C [1] of 0.121 nM.

B3: SB11 (antibody, V domains shown)
VH: EVQLQQSGAELVKPGASVKLSCTASGFNIQDTYILWVKQRPEQGLEWIGGIDPANDNTNYGPNFQGKATITADTSSNTAYLQLSSLTSEDSAVYYCAREDAYPWFAYWGQGTLVTVSS
VL: DIVLTQSPASLAVSLGQRATISCRASQSVSTSSYSYMHWYQLKPGQPPKLLIKYASNLESGVPARFSGSGSGTDFTLNIHPVEEEDAAIYYCQHNWEIPWTFGGGTRLEIK
notes: as for B1
B3 came in with a Kd in the assay with huCDCP1-his of 0.476 nM. Also, the EC50 with HuCDCP1-B came to 0.035 nM; in the assay with HuCDCP1-C [1], 0.038 nM.

B4: SB10 (antibody, V domains shown)
VH: QVTLKESGPGILQPSQTLSLTCSFSGFSLSTSGMGVSWFRQPSGKGLEWLAHIYWDDDKRYNPSLKSRLTISKDTSSNQVFLRITNVDTSDTATYYCTREGSADWEALDYWGQGTSVTVSS
VL: DVLMTQTPLSLSVSLGDQASISCRSSQTIVYSNGNSYLEWYLQKPGQSPKLLIYKVSNRFSGIPDRFSGSGSGTDFTLKISRVEAEDLGIYYCFQSSHVPWTFGGGTKLEIK
notes: as for B1
In turn, B4 returned a Kd with huCDCP1-his of 3.68 nM. In the assay with HuCDCP1-C [1], this molecule returned a concentration for a half-maximal effect (EC50) of 0.03 nM.

B5: SB12 (antibody, V domains shown)
VH: QVQLQQSGAELMKPGASVKISCKATGYTFSRYWVEWVKQRPGHGLEWIGDILPGSDFTNYNEKFKGKATFTADSSSNTAYMQLSSLTSEDSAVYYCARKDYYGNYDYAMDYWGQGTSVTVSS
VL: DVQITQSPSYLAASPGEAITINCRTSKSIGKYLAWYQEKPGKTNKLLIYSGSTLQSGIPSRFSGSGSGTDFTLTITSLEPEDFAMYYCQQHDEYPWTFGGGTKLDIK
notes: as for B1
In the assay with huCDCP1-his, B5 returned a Kd of 238 nM.

B6: SB15 (antibody, V domains shown)
VH: EVKLVESGGGLVKPGGSLKLSCAASGFTFSSYGMSWVRQTPEKRLEWVATISGGINYTYYRDSVEGRFTISRDNAKNNLYLQMSRLRSEDTALYYCARHDRYDGYYYVMDYWGQGTSVTVSS
VL: DIQMTQSPSSLSASLGERVSLTCRASQEISGYLTWLQQRPDGTIKRLIYAASTLDSGVPKRFSGSRSGSDYSLTISSLESEDFADYYCLQYASYPYTFGGGTKLEIK
notes: as for B1
In the assay with huCDCP1-his, B6 yielded a Kd of 11.6 nM. In the assay with HuCDCP1-C [1], this molecule yielded an EC50 of 0.042 nM.

B7: SB13 (antibody, V domains shown)
VH: EVKLVESGGGLVQPGGSLRLSCATSGFTFSDFYMEWVRQPPGKRLEWIAVSRDKTNDYTTEYSASMKGRFIVSRDTSQSILYLQMNALRAEDTAIYYCARDGVYYYGSSYTLDYWGQGTSVTVSS
VL: DIVMTQSHKFMSTSVGDRVSITCKASQDVSSSVAWYQQKPGQSPKLLIYWASTRHTGVPDRFTGSGSGTDYTLTISSVQAEDLALYYCQQHYNTPPTFGGGTKLEIK
notes: as for B1
Regarding B7, the Kd in the assay with huCDCP1-his was determined as 12.4 nM. In the assay with HuCDCP1-C [1], a half-maximal response (EC50) required 0.048 nM.

B8: SB17 (antibody, V domains shown)
VH: QVTLKESGPGILQPSQTLSLTCSFSGFSLSTSGMSVGWIRQPSGKGLEWLAHIWWNDDKYYNPALKTRLTISKDSSNNQIFLKIASVVTADSATYYCARIGYYYGTYALDYWGPGTSVTVSS
VL: QIVLTQSPALMTASPGEQVTMTCSASSSVSYIHWYQQKSGTSPKRWIYDASKLASGVPARFSGSGSGTSYSLTISSMEAEDAATYYCQQWSSYPLTFGGGTKLELK
notes: as for B1
Take B8: the Kd in the assay with huCDCP1-his was 5.52 nM. Moreover, a half-maximal response with HuCDCP1-C [1] (EC50) required 0.046 nM.

B9: 1CP-130 (antibody, human IgG1, kappa, V domains shown)
VH: QVQLVQSGAEVKKPGASVKVSCKASGYNFISYWLHWVRQAPGQGLEWMGGIYPGNTDTTYNQKFKGRVTMTADTSTSTAYMELSSLRSEDTAVYYCIRYDYDRGMDYWGQGTLVTVSS
VL: DIQMTQSPSSLSASVGDRVTITCRASEDIYYRLAWYQQKPGKAPKLLISGATALETGVPSRFSGSGSGKDYTLTISSLQPEDIATYYCQHYWNIPWTFGQGTKVEIKR
notes: humanized 3C11, human IgG1 kappa
In the case of B9, in the assay with HuCDCP1-C [2], binding was characterised by a dissociation constant (Kd) of 11.6 nM.

B10: SB16 (antibody, V domains shown)
VH: QVQLQQSGPELVRPGVSVRISCKGSGYPFTDYAIHWVKQGHGKNLEWIGVIAPYSDNTGYNQRFKGKATMTVDKSSSTAYMELARLTSEDSAIYYCAAYGNYGYYTMDYWGQGTSVTVSS
VL: DIQMTQSTSSLSASLGDRVTITCRASQDITNYLNWYQQKPDGTVKLLIYYTSRLHSGVPSRFSGSGSGTDFSLTISNLEQEDIATYFCQQGNTLPWTFGGGTKLEII
notes: as for B1
As to B10, the dissociation constant (Kd) in the assay with huCDCP1-his is 178 nM. This molecule registered an EC50 with HuCDCP1-C [1] of 19.6 nM.

These data come from US20260250410A1 (SICHUAN HUIYU PHARMACEUTICAL, published 2026).
